Measurements: PubChem BioAssay AID624377 (The Scripps Research Institute Molecular Screening Center, 2012)
Only a part is listed here, and it is no random draw. Calls of active or inactive are those of the source. Rule as the data show it: active = inhibition above about 25%; inactive = the rest.

The chains behind the UniProt entries cited, without tags or fusion partners. Residues count along the entry.
UniProt Q9ULH1, 325-724 limits assumed: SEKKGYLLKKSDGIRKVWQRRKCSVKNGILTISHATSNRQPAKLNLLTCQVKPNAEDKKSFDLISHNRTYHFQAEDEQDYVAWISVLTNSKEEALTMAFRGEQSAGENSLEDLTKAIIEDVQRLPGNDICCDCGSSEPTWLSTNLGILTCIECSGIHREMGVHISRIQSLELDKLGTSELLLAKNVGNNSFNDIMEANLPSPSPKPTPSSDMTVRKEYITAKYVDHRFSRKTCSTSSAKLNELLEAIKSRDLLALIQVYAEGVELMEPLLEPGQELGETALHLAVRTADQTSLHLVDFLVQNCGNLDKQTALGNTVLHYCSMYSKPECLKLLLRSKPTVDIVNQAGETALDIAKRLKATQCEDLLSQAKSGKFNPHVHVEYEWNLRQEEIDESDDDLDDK

Target: Arf-GAP with SH3 domain, ANK repeat and PH domain-containing protein 1 (Homo sapiens) (UniProt Q9ULH1)
Assay: inhibitors of human ASAP1 ArfGAP activity, primary screen, biochemical, fluorescence polarization (AID 624377);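 also: 0% = vehicle with enzyme and substrate and 100% = no enzyme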
Settings: ASAP1-stimulated ARF1 GTP hydrolysis, GDP FP detection; at 16.5 µM; hits give high values

Row | Compound | inhibition
1 | CCOc1ccc(C)cc1CN(CCCl)CCCl | inactive: -2.31%
2 | CC(C)(C)n1nnnc1C(c1ccccc1)N1CCC(n2c(=O)[nH]c3ccccc32)CC1 (configuration not stated) | inactive: 6.82%
3 | O=C1CCN(Cc2ccccc2)CC1 | inactive: -0.23%
4 | CCCCOc1ccc(C(=O)NCC2(N3CCOCC3)CCCCC2)cc1 | inactive: -10.1%
5 | O=P1(N(CCCl)CCCl)SCCCS1 | inactive: 12.6%
6 | CCCCn1nnnc1C(c1cc2ccccc2o1)N1CCC(n2c(=O)[nH]c3ccccc32)CC1 (configuration not stated) | inactive: -7.48%
7 | O=C(NCC1(N2CCCCC2)CCCCC1)c1ccc(F)cc1 | inactive: 7.46%
8 | CCOC(=O)N1CCC(Nc2ccc(F)cc2)CC1 | inactive: -2.49%
9 | COc1ccc(NC2CCN(CCc3ccccc3)CC2)c(OC)c1 | inactive: -11.2%
10 | O=c1[nH]c2ccccc2n1C1CCN(C(c2ccccc2)c2nnnn2C2CCCCC2)CC1 (configuration not stated) | inactive: 2.41%
11 | O=c1[nH]c2ccccc2n1C1CCN(C(c2cccc3ccccc23)c2nnnn2C2CCCC2)CC1 (configuration not stated) | inactive: 9%
12 | CCOC(=O)N1CCC(Nc2cccc(C)c2)CC1 | inactive: -2.89%
13 | COc1cc(C(=O)NCC2(N(C)C)CCCCC2)ccc1OC(F)F | inactive: 2.33%
14 | O=C(NCC1(N2CCCCC2)CCCCC1)c1ccc(=O)[nH]c1 | inactive: 0.64%
15 | O=C(NCC1(N2CCCCC2)CCCCC1)c1cccs1 | inactive: 4.04%
16 | CCCCn1nnnc1C(CC)N1CCC(n2c(=O)[nH]c3ccccc32)CC1 (configuration not stated) | inactive: -9.22%
17 | CCCCn1nnnc1C(c1cccs1)N1CCC(n2c(=O)[nH]c3ccccc32)CC1 (configuration not stated) | inactive: 3.91%
18 | COc1ccc(C(=O)NCC2(N3CCCCC3)CCCCC2)cc1 | inactive: -12.2%
19 | CC(C)(C)OC(=O)N1CCC(N(C(=O)c2ccccc2)c2ccc(F)cc2)CC1 | inactive: -4.31%
20 | COc1ccc(C(=O)NCC2(N3CCCCC3)CCCCC2)c(OC)c1OC | inactive: -0.83%
21 | CCC(c1nnnn1C1CCCC1)N1CCC(n2c(=O)[nH]c3ccccc32)CC1 (configuration not stated) | inactive: -2.29%
22 | CSc1ccccc1C(=O)NCC1(N2CCCCC2)CCCCC1 | inactive: 2.36%
23 | Cc1cccc(NC2(C#N)CCN(Cc3ccccc3)CC2)c1 | inactive: 0.1%
24 | O=C(NCC1(N2CCOCC2)CCCCC1)c1cc2ccccc2o1 | inactive: 2.44%
25 | O=C(NCC1(N2CCCCC2)CCCCC1)c1ccc(Cl)nc1 | inactive: 4.18%
26 | O=c1[nH]c2ccccc2n1C1CCN(C(c2ccccc2OC(F)(F)F)c2nnnn2C2CCCCC2)CC1 (configuration not stated) | inactive: -8.64%
27 | Cc1cc(C)cc(N(C(=O)c2ccccc2)C2CCN(C(=O)OC(C)(C)C)CC2)c1 | inactive: 1.68%
